The term IC50 denotes the concentration at which inhibition is half-maximal. Broadly, the EC50 is the midpoint of the concentration-response curve. Read a low EC50 as greater potency.

The structures appear in SMILES notation.

The values below come from publication PMC12064818, “A general assay platform to study protein pharmacology using ligand-dependent structural dynamics” (Nature Communications, 2025).

Experiment [1] deals with T1, PKA-N-HiBiT (Homo sapiens, UniProt P17612). Kind of experiment: PKA peptide phosphorylation, Kinase-Glo Plus (KGP) assay, PKA-N-HiBiT. A general note: In Kinase-Glo more light means more ATP remaining.
For experiment [2], the target named is T1, PKA-N-HiBiT. Kind of experiment: biochemical.
Experiment [3] has as its target T2, endogenous DHFR-C-HiBiT in HEK293 cell lysate (Homo sapiens, UniProt P00374).
T2 sequence (P00374 1-187): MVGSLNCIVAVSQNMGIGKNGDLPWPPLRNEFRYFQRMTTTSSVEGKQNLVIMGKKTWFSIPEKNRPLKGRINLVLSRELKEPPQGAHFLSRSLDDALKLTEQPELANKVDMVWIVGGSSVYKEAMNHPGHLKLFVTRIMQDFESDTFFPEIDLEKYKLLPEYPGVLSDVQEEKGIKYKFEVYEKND
Kind of experiment: SDR assay, cellular lysate from DHFR C-terminus HiBiT gene edited HEK293 cells. The conditions noted are these: pSDR50 (lysate), Mean, 1:100 lysate (~0.2 nM) without added NADPH. On the technique in general: HiBiT is a short tag that completes a luciferase, so light tracks the accessible tagged protein.

Experiment [4] addresses T3, DHFR-C-HiBiT (Homo sapiens, UniProt P00374).
T3 sequence (P00374 2-187): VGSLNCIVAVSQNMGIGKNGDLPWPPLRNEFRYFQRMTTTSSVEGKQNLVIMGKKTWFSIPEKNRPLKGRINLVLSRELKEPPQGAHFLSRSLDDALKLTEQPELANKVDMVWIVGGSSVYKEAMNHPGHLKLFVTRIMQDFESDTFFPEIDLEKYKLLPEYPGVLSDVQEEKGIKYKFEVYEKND
Description: biochemical.

Experiment [5] deals with T3, DHFR-C-HiBiT. Description: Dihydrofolate reductase enzymatic absorbance assay.

For the compound `CCN1CCN(Cc2ccc(NC(=O)Nc3ccc(Oc4cc(NC)ncn4)cc3)cc2C(F)(F)F)CC1` [AST-487], the IC50 at PKA-N-HiBiT [1] was 112 µM. In addition, at PKA-N-HiBiT [2], the concentration giving a half-maximal response (EC50) is 19.1 µM.
In turn, `Cc1[nH]c(/C=C2\C(=O)Nc3ccc(S(=O)(=O)Cc4c(Cl)cccc4Cl)cc32)c(C)c1C(=O)N1CCC[C@@H]1CN1CCCC1` [PHA-665752] showed an EC50 on PKA-N-HiBiT [2] of 47.9 µM. This lies in the double-digit micromolar range.
For the compound `Nc1nc2[nH]cc(CCc3ccc(C(=O)N[C@@H](CCC(=O)O)C(=O)O)cc3)c2c(=O)[nH]1` [pemetrexed], the concentration giving a half-maximal response (EC50) in experiment [3] is 0.794 µM; at DHFR-C-HiBiT [4], 4.27 µM. Also, the half-inhibitory concentration (IC50) against DHFR-C-HiBiT [5] was 10 µM.
